The target in this assay is T1, Potassium channel subfamily K member 2 (Homo sapiens, UniProt O95069).
T1 sequence (O95069 whole entry): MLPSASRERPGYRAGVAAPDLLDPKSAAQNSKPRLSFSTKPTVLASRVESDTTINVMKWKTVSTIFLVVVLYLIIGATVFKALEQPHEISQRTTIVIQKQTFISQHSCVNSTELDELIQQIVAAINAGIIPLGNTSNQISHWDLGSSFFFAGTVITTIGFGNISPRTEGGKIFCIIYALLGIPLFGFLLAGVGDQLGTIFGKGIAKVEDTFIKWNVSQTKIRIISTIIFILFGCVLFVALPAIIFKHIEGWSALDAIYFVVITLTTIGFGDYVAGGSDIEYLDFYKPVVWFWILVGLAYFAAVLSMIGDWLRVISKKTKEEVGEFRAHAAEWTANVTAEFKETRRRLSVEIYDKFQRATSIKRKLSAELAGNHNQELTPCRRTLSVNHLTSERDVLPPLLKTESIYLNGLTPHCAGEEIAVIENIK
The assay can be described thus: Inhibition of human TREK1 expressed in whole COS cells assessed as reduction in channel currents.

The structures appear in SMILES notation.

Regarding `OCCN1CCN(CC/C=C2/c3ccccc3Sc3ccc(C(F)(F)F)cc32)CC1` [Fluphenthixol], the IC50 turned out to be 2000 nM.

Usually IC50 stands for the concentration needed to halve the response being measured.
